Assay results as given in ChEMBL document CHEMBL4390676, “Discovery of Bisubstrate Inhibitors for Protein N-Terminal Methyltransferase 1” (J Med Chem, 2019).

Experiments:
[1] = species: Homo sapiens; assay: Selectivity ratio of IC50 for human His-tagged G9a (913 to 1193 residues) expressed in Escherichia coli BL21-CodonPlus(DE3)-RIL to IC50 for recombinant human full-length His6-tagged NTMT1 (1 to 222 residues) expressed in Escherichia coli BL21-CodonPlus(DE3)-RIL competent cells
[2] = species: Homo sapiens; assay: Selectivity ratio of IC50 for human His-tagged SETD7 (1 to 366 residues) expressed in Escherichia coli to IC50 for recombinant human full-length His6-tagged NTMT1 (1 to 222 residues) expressed in Escherichia coli BL21-CodonPlus(DE3)-RIL competent cells
[3] = species: Homo sapiens; assay: Selectivity ratio of IC50 for human His-tagged NNMT (1 to 264 residues) expressed in Escherichia coli BL21(DE3) to IC50 for recombinant human full-length His6-tagged NTMT1 (1 to 222 residues) expressed in Escherichia coli BL21-CodonPlus(DE3)-RIL competent cells
[4] = species: Homo sapiens; assay: Selectivity ratio of IC50 for SAHH (unknown origin) to IC50 for recombinant human full-length His6-tagged NTMT1 (1 to 222 residues) expressed in Escherichia coli BL21-CodonPlus(DE3)-RIL competent cells
[5] = Selectivity ratio of IC50 for rat His6-tagged PRMT1 expressed in Escherichia coli BL21(DE3) to IC50 for recombinant human full-length His6-tagged NTMT1 (1 to 222 residues) expressed in Escherichia coli BL21-CodonPlus(DE3)-RIL competent cells
[6] = Selectivity ratio of IC50 for Trypanosoma brucei N-terminal His6-tagged PRMT7 expressed in Escherichia coli BL21-CodonPlus(DE3)-RIL to IC50 for recombinant human full-length His6-tagged NTMT1 (1 to 222 residues) expressed in Escherichia coli BL21-CodonPlus(DE3)-RIL competent cells

## CC[C@H](C)[C@H](NC(=O)[C@H](CCCNC(=N)N)NC(=O)[C@H](CCCCN)NC(=O)[C@@H]1CCCN1C(=O)[C@@H]1CCCN1CCCN(CC[C@H](N)C(=O)O)C[C@H]1O[C@@H](n2cnc3c(N)ncnc32)[C@H](O)[C@@H]1O)C(=O)N[C@@H](C)C(N)=O
[1]
  Ratio IC50: > 600
[2]
  Ratio IC50: > 600
[3]
  Ratio IC50: > 600
[4]
  Ratio IC50: > 100
[5]
  Ratio IC50: 200
[6]
  Ratio IC50: > 100
